Measured values: US8414883B2, “Parvovirus cancer therapy and combination with chemotherapy” (priority 2007, dated 2013)

What was measured:
Format in all cases: cell-based, human
[1] = test system: BxPC3 cells; test: MTT cytotoxicity of H-1PV, gemcitabine and their combination, BxPC3
Description: (§1) Colo357, T3M-4, SU86.86, MiaPaCa-2, Panc-1 and BxPC-3 cells were cultured at a densitiy of 2×10^3 cells per well in 96-well plates, and treated with gemcitabine (0.4-4000 ng/ml), followed 24 h later by H-1PV (1, 10 or 100 RU/cell). Survival was measured using MTT assays performed 72 h after infection, in comparison with mock-treated cultures (100%), and is inversely expressed as cell death rate. The data presented are means from 3 independent experiments carried out in quadruplicates.
(§2) For cytotoxicity assessment, cells were seeded in 96-well plates at a density of 2×10^3 cells per well and treated as indicated in the Figure Legends. Cell viability was determined by the colorimetric MTT (3-(4,5-dimethylthiazolyl-2)-2,5-diphenyltetrazolium bromide) assay, as recommended by the manufacturer (Sigma, Deisenhofen, Germany).
(§3) Means and standard deviations (SD) were calculated from triplicate in vitro experiments. […] Combination (CI) and sensitization (SI) indices were calculated using the following equations: CI=(DH1.c/DH1.a)+(DG.c/DG.a)+(DH1.c*DG.c/DH1.a*DG.a); SIH-1PV=DH1.a/DH1.c; SIgem=DG.a/DG.c, where DH1.c, DH1.a, DG.c and DG.a are the respective EC50/75 doses of H-1PV or gemcitabine, alone (H1.a, G.a) or in combination (H1.c, G.c). […]

[2] = test system: Colo357 cells; test: MTT cytotoxicity of H-1PV, gemcitabine and their combination, Colo357
Description: as §1, §2, §3

[3] = test system: MiaPaCa-2 cells; test: MTT cytotoxicity of H-1PV, gemcitabine and their combination, MiaPaCa-2; settings: EC75, H-1PV MOI 1
Description: as §1, §2, §3

[4] = test system: Panc-1 cells; test: MTT cytotoxicity of H-1PV, gemcitabine and their combination, Panc-1
Description: as §1, §2, §3

[5] = test system: SU86.86 cells; test: MTT cytotoxicity of H-1PV, gemcitabine and their combination, SU86.86
Description: as §1, §2, §3

[6] = test system: T3M-4 cells; test: MTT cytotoxicity of H-1PV, gemcitabine and their combination, T3M-4
Description: Survival was measured using MTT assays performed 72 h after infection, in comparison with mock-treated cultures (100%), and is inversely expressed as cell death rate. The data presented are means from 3 independent experiments carried out in quadruplicates.
as §2
Means and standard deviations (SD) were calculated from triplicate in vitro experiments. […] The isobologram was created from the data obtained for the combination of the two agents. […] CI=1 represents the conservation isobologram and indicates additive effects. CI values below 1 indicate higher than the expected additive effect (synergy).
Drug sensitivity of parental and resistant cells was assessed in both MTT and clonogenic survival assays.

[7] = test system: gemcitabine-resistant Panc-1 cells; test: MTT cytotoxicity 144 h, gemcitabine-resistant Panc-1; settings: Panc-1R; gemcitabine 40 ng/ml for 144 h
Description: as §2

[8] = test system: gemcitabine-resistant BxPC-3 cells; test: MTT cytotoxicity 144 h, gemcitabine-resistant BxPC-3; settings: BxPC-3R; gemcitabine 40 ng/ml for 144 h
Description: as §2

With `Nc1ccn([C@@H]2O[C@H](CO)[C@@H](O)C2(F)F)c(=O)n1` [gemcitabine] the “SIGem (sensitization index) comb. 1” value ([1]; EC50, H-1PV MOI 1) was 1.3, the “SIGem (sensitization index) comb. 2” value ([1]; EC50, H-1PV MOI 10) was 3.6 and the “SIGem (sensitization index) comb. 1” value ([2]; EC50, H-1PV MOI 1) was 1.2. The “SIGem (sensitization index) comb. 2” value ([2]; EC50, H-1PV MOI 10) was 2.5, the “SIGem (sensitization index) comb. 1” value [3] was 1.7 and the “SIGem (sensitization index) comb. 1” value ([4]; EC50, H-1PV MOI 1) was 2.0. The “SIGem (sensitization index) comb. 2” value ([4]; EC50, H-1PV MOI 10) was 6.7, the “SIGem (sensitization index) comb. 1” value ([5]; EC75, H-1PV MOI 1) was 2.1 and the “SIGem (sensitization index) comb. 2” value ([5]; EC75, H-1PV MOI 10) was 13.1. For the same compound, the “SIGem (sensitization index) comb. 1” value ([6]; EC75, H-1PV MOI 1) was 1.0, the “SIGem (sensitization index) comb. 2” value ([6]; EC75, H-1PV MOI 10) was 1.7 and the “response of drug-resistant variant to extended incubation with gemcitabine” value [7] was “resisted”. For the same compound, the “response of drug-resistant variant to extended incubation with gemcitabine” value [8] was “resisted”.
